In assay [1] the target is T1, human 11β-HSD1 (Homo sapiens, UniProt P28845). The assay can be described thus: Inhibition of a microsomal preparation of 11β-HSD1, SPA (Biological Test Example 2). It counts as biochemical. The following applies: read-out: Biological Test Example 2 (IC50 class).
Assay [2] concerns the target T1, human 11β-HSD1. Put plainly: Scintillation Proximity Assay: inhibition of purified 11β-HSD1 (Biological Test Example 1). The settings on record: read-out: Biological Test Example 1 (IC50 class); purified recombinant 11β-HSD1, SPA. In general terms: In a scintillation proximity assay essentially only radioactivity close to the scintillant gives light.

Chains of the proteins cited; added tags and fusions are not shown.
UniProt P28845, whole entry: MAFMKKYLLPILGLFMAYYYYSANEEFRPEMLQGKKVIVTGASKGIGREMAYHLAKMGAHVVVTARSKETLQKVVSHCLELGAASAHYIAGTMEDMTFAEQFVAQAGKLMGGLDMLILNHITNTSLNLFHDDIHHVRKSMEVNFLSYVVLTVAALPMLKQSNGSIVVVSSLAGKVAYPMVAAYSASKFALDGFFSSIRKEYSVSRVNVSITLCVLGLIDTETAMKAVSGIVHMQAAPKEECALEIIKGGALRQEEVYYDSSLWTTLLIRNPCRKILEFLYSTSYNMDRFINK

One may read the IC50 as the midpoint of a concentration-inhibition curve. On to `CCOC(=O)C=C1CC2(CCN(C(=O)NC3C4CC5CC(C4)CC3C5)CC2)c2c(Br)cccc21` (single isomer, unassigned), for which the IC50 on human 11β-HSD1 [1] is less than 50 nM.

For `CNCCN(C)C(=O)CC1CC2(CCN(C(=O)NC3C4CC5CC(C4)CC3C5)CC2)c2c(Br)cccc21` (single isomer, unassigned), at human 11β-HSD1 [1], the IC50 is less than 50 nM.

Regarding `COC(=O)CC1CC2(CCN(C(=O)NC3C4CC5CC(C4)CC3C5)CC2)c2ccccc21` (single isomer, unassigned), the IC50 at human 11β-HSD1 [2] is less than 50 nM.

As for `O=C(O)CC1CC2(CCN(C(=O)NC3C4CC5CC(C4)CC3C5)CC2)c2c(Br)cccc21` (single isomer, unassigned), at human 11β-HSD1 [1], the IC50 was less than 50 nM.

Regarding `O=C(O)CC1CC2(CCN(C(=O)NC3C4CC5CC3CC(F)(C5)C4)CC2)c2c(Br)cccc21` (single isomer, unassigned), on human 11β-HSD1 [1], the IC50 was less than 50 nM.

Turning to `O=C(O)CC1CC2(CCN(C(=O)OC3C4CC5CC(C4)CC3C5)CC2)c2c(Br)cccc21` (single isomer, unassigned), the IC50 at human 11β-HSD1 [1] was less than 50 nM.

With `O=C(O)CC1CC2(CCN(C(=O)NC3C4CC5CC3CC(O)(C5)C4)CC2)c2c(Br)cccc21` (single isomer, unassigned) [75 Isomer 1], the IC50 at human 11β-HSD1 [1] is less than 50 nM.

Take `O=C(O)CC1CC2(CCN(C(=O)NC3C4CC5CC3CC(O)(C5)C4)CC2)c2c(Br)cccc21` (single isomer, unassigned) [75 Isomer 2]: the IC50 on human 11β-HSD1 [1] is less than 50 nM.

Take `O=C(O)CC1CC2(CCN(C(=O)NC3C4CC5CC3CC(O)(C5)C4)CC2)c2c(Br)cccc21` (single isomer, unassigned) [75 Isomer 3]: the IC50 on human 11β-HSD1 [1] fell in the range of 50 to 1000 nM.

`CN1C(=S)c2ccccc2C12CCN(C(=O)NC1C3CC4CC(C3)CC1C4)CC2` (stereo not shown) [103, Step 1 Product]: the IC50 on human 11β-HSD1 [1] was less than 50 nM.

Source of the values: patent US8927715B2, “Inhibitors of 11β-hydroxysteroid dehydrogenase type 1” (Vitae Pharmaceuticals, Inc., priority 2006, dated 2015).
